Chains of the proteins cited; added tags and fusions are not shown.
UniProt Q15858, whole entry: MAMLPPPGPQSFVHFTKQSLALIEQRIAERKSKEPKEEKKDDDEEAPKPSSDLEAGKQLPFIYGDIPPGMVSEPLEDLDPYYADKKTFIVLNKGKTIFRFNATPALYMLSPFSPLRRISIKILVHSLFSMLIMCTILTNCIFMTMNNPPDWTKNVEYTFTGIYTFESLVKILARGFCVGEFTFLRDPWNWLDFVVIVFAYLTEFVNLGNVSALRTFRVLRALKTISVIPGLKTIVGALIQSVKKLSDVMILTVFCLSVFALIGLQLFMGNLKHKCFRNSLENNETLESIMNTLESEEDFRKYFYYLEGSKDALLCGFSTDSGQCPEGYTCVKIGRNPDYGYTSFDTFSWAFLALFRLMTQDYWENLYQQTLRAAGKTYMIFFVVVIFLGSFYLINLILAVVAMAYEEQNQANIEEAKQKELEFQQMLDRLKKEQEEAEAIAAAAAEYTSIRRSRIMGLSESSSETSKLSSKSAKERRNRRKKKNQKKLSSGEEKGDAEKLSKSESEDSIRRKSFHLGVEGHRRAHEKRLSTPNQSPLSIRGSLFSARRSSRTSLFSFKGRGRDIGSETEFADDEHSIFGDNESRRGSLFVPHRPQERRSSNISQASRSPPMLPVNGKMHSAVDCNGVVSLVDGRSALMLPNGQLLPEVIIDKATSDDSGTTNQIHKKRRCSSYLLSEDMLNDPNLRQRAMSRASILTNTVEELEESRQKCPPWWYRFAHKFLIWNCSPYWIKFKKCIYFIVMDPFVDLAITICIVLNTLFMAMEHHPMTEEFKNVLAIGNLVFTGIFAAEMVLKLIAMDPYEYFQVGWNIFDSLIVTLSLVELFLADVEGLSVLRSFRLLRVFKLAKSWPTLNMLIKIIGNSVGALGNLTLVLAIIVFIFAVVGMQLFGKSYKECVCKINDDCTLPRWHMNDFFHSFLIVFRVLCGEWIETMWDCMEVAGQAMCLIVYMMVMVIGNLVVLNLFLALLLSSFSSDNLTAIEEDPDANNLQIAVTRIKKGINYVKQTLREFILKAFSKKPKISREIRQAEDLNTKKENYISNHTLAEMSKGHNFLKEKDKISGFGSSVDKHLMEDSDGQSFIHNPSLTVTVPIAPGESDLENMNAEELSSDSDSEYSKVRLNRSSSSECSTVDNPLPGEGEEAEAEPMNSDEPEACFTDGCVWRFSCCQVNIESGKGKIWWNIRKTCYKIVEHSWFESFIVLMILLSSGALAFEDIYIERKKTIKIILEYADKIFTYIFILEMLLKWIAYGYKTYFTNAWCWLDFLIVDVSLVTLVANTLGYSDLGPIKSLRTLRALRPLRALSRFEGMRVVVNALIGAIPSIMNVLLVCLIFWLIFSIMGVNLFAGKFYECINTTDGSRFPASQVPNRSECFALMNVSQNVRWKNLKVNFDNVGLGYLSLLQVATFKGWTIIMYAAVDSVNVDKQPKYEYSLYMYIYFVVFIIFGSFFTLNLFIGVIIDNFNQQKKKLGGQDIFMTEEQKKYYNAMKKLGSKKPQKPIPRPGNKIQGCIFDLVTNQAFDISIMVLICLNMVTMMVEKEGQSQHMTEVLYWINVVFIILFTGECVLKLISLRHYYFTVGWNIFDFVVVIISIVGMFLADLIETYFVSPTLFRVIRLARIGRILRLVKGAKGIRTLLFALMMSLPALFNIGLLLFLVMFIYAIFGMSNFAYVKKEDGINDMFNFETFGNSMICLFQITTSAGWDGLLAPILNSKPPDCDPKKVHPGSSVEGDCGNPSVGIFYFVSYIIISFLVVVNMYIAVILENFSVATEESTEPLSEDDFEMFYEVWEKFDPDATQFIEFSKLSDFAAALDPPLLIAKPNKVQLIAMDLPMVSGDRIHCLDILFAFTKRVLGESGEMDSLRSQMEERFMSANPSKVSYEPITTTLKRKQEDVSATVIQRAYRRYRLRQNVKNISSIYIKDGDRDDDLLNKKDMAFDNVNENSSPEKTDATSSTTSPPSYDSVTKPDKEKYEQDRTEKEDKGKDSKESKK

According to publication PMC6628435, “Chemical Synthesis, Proper Folding, Nav Channel Selectivity Profile and Analgesic Properties of the Spider Peptide Phlotoxin 1” (Toxins, 2019):

Target: T1, human Nav1.7 (Homo sapiens, UniProt Q15858)
T1 construct: expressed in transfected cells
Assay: Automated patch-clamp (Nanion SyncroPatch 384PE) on CHO cells expressing human Nav1.7
Assay type: cell-based
Description: We used a CHO mammalian cell line expressing the human Nav1.7 instead of Xenopus oocytes for the pharmacological evaluation. […] 100-ms pulses from −100 mV to −10 mV were applied at a frequency of 0.2 Hz and various concentrations of PhlTx1 were applied to the cells. […] Using a manual patch clamp, which is better suited to investigate current recovery from block than an automated patch clamp that requires several washing steps, we investigated the reversibility properties of a PhlTx1 block.
CHO cells stably expressing the human Nav1.7 cells were cultured in Dulbecco’s Modified Eagle’s Medium (DMEM) supplemented with 10% fetal calf serum, 1 mM pyruvic acid, 4 mM glutamine, 10 IU/mL penicillin and 10 μg/mL streptomycin (Gibco, Grand Island, NY, USA), and incubated at 37 °C in a 5% CO2 atmosphere. For automated patch-clamp recordings, cells were detached with trypsin and floating single cells were diluted (~300,000 cells/mL) in medium contained (in mM): 4 KCl, 140 NaCl, 5 Glucose, 10 HEPES (pH 7.4, osmolarity 290 mOsm).
Chips with single-hole and high-resistance (~6–7 MΩ) were used for CHO cell recordings. […] Percentages of current inhibitions were measured at the end of a 12- to 15-min application time (12-min for fast blocking toxins; 15-min for slow blocking ones). […]

`CC(C)C[C@H](NC(=O)[C@H](CCCCN)NC(=O)[C@H](Cc1c[nH]c2ccccc12)NC(=O)[C@H](CCCCN)NC(=O)[C@@H]1CSSC[C@@H]2NC(=O)[C@H](CCC(=O)O)NC(=O)[C@H](CC(N)=O)NC(=O)[C@H](CCCCN)NC(=O)CNC(=O)[C@@H]3CCCN3C(=O)[C@H]([C@@H](C)O)NC(=O)[C@@H]3CSSC[C@H](NC(=O)[C@H](C(C)C)NC(=O)[C@H](CCCNC(=N)N)NC(=O)[C@H](CC(N)=O)NC(=O)[C@@H]4CCCN4C(=O)[C@H](CSSC[C@H](NC(=O)[C@H](C)N)C(=O)N[C@@H](CCCCN)C(=O)NCC(=O)N[C@@H](C(C)C)C(=O)N[C@@H](Cc4ccccc4)C(=O)N[C@@H](CC(=O)O)C(=O)N[C@@H](C)C(=O)N3)NC2=O)C(=O)N[C@@H](CO)C(=O)N[C@@H](CC(=O)O)C(=O)N[C@@H](CCCCN)C(=O)N[C@@H](Cc2cnc[nH]2)C(=O)N[C@@H](CCCCN)C(=O)N[C@@H](Cc2c[nH]c3ccccc23)C(=O)N1)C(=O)O` [HwTx-I] was tested, and the IC50 was 25.1 nM.
